According to PubChem BioAssay (Tox21):
“And” between values parts separate entries of the source, which are not always exact repeats. Equal values may be shown once. This is a selection; strong and weak results do not stand in their true shares. Results filed as inconclusive are left out. The source holds several records for some structures; these can differ, active in one and inactive in another. The source made the active and inactive calls. Unless noted, calls come from the whole dose curve; as a rule, active = well fitted curve in the direction sought with a large enough effect in the repeat runs; inconclusive = weak or mixed curves; inactive = no such curve, though single readings can be large; an effect the other way counts as inactive or inconclusive.

By UniProt entry, the sequences of proteins in these tests, tags left out.
UniProt P11511, whole entry: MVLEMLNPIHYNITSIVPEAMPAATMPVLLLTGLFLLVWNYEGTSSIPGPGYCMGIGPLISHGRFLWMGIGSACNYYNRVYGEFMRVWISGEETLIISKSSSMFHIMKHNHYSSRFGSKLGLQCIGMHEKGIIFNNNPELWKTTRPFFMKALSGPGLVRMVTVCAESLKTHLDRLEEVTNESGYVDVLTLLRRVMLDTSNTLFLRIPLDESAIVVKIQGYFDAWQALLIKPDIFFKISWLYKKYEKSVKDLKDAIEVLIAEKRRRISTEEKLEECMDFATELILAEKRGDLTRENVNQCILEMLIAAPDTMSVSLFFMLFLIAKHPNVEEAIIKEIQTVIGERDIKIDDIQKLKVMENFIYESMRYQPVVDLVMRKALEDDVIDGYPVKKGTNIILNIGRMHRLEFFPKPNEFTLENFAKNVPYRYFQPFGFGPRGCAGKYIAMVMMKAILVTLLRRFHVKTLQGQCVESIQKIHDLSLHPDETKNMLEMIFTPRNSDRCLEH
UniProt P03372, whole entry: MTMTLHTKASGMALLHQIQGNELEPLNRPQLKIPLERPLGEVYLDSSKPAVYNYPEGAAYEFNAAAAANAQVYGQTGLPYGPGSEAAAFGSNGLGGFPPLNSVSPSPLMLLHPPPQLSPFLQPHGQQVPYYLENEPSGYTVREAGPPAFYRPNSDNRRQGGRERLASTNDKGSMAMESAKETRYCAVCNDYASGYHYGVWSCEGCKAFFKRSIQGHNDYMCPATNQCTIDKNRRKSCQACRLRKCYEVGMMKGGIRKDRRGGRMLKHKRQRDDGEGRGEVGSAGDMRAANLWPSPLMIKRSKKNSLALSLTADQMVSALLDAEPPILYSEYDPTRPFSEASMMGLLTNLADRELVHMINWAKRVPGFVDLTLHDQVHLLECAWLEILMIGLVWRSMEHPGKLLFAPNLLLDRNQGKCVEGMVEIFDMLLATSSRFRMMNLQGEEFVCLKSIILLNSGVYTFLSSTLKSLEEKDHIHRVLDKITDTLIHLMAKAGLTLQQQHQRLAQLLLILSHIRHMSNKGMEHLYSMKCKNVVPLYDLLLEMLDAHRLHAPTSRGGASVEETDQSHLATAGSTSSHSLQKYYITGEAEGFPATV
UniProt P37231, whole entry: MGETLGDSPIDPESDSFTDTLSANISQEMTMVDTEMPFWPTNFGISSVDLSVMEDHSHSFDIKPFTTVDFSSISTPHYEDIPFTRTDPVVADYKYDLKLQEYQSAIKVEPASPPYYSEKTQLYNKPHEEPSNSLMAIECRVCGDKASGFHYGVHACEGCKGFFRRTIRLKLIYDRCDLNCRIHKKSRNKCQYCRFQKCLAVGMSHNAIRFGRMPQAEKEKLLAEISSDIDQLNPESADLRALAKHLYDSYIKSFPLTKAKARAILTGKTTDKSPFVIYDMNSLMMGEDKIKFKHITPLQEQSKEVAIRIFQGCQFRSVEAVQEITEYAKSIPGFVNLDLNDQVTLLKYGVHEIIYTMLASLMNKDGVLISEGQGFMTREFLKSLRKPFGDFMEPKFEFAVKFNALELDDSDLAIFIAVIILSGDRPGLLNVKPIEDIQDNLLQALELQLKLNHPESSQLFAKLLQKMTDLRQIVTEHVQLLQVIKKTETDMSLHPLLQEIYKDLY
UniProt P35869, whole entry: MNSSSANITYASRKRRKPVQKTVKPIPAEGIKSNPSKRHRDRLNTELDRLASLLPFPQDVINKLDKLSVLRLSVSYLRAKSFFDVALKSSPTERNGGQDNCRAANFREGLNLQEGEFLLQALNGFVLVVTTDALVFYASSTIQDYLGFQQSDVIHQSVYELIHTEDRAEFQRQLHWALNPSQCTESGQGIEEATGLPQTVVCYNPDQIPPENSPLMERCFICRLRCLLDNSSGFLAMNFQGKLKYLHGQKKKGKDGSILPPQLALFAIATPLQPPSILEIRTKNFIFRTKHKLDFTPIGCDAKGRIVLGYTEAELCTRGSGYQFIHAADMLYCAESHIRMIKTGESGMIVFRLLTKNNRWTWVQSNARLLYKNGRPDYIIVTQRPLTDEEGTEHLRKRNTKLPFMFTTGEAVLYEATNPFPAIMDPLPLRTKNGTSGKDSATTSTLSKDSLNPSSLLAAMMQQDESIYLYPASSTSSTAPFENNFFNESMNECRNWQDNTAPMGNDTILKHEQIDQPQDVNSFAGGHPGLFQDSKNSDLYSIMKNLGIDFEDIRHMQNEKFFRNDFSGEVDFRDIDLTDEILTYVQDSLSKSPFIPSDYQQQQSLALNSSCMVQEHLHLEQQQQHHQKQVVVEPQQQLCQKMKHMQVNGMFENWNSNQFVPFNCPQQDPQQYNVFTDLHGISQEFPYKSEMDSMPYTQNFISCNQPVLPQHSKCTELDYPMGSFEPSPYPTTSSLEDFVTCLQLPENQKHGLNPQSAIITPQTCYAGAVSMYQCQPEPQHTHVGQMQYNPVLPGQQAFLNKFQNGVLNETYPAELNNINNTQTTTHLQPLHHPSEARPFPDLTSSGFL

How the values were obtained:
[1] = qHTS assay for identifying genotoxic compounds that show differential cytotoxicity against isogenic chicken DT40 cell lines with known DNA damage response pathways - Rev3 mutant cell line (AID 743014); note: nearly all actives have a fitted effect of over 55% in size; note: potency is the fitted concentration of half-maximal effect
Source text: National Center for Advancing Translational Sciences [NCATS]
NIH Chemical Genomics Center [NCGC]
U.S. Environmental Protection Agency [EPA]
National Institutes of Environmental Health Sciences [NIEHS]
National Toxicology Program [NTP]
U.S. Food and Drug Administration [FDA]
DNA repair pathways play a critical role in cellular homeostasis by repairing DNA damage induced by endogenous processes and xenobiotics. Isogenic chicken DT40 cell lines deficient in different DNA repair pathways can be used to identify genotoxic compounds and aid in characterizing the nature of the DNA damage induced. Two DNA repair-deficient cell lines with disrupted genes, Rad54/Ku70 or Rev3, were used to screen the Tox21 10K compound library. Possible genotoxicity was based on the presence of a significant increase in cytotoxicity in one or more of the DNA repair-deficient cell lines compared to that observed in the parental DNA repair-proficient cell line. CellTiter Glo viability assay (Promega, Madison, WI) was used to measure cell viability in these cells after compound treatment. This assay includes the data from the Rev3 mutant cell line.
Tox21 Assay Protocol Summary:
300 DT40 mutant cells in 5 uL/well were dispensed into white, solid-bottom 1536-well plates using a Multidrop Combi (ThermoFisher Scientific, Waltham, MA) dispenser. After the assay plates were incubated at 37 C/5% CO2 for approximately 0.5 hour, 23 nL of compounds dissolved in DMSO, positive controls or DMSO only was transferred into the assay plate by a pintool work station (Kalypsys, San Diego, CA). The assay plates were incubated at 37 C/5% CO2 for 40 hours. After 5 uL per well of CellTiter-Glo reagent was added into each well of the assay plates, the plates were incubated for 30 min at room temperature and the luminescence intensity of the plates was measured using a ViewLux (PerkinElmer, Shelton, CT) plate reader.

[2] = qHTS assay for identifying genotoxic compounds that show differential cytotoxicity against isogenic chicken DT40 cell lines with known DNA damage response pathways - Rad54/Ku70 mutant cell line (AID 743015); note: nearly all actives have a fitted effect of over 60% in size; note: potency is the fitted concentration of half-maximal effect
[3] = qHTS assay to identify small molecule antagonists of the androgen receptor (AR) signaling pathway - cell viability counter screen (AID 743033; note: nearly all actives have a fitted effect of over 45% in size); conditions: AR-bla HEK293 viability, CellTiter-Glo luminescence, 16 h
[4] = test system: thyroid hormone receptor (rat, GH3 cells); assay: qHTS assay to identify small molecule agonists of the thyroid receptor (TR) signaling pathway (AID 743066; calls by dose curve); conditions: GH3.TRE-Luc cells, TR agonist luciferase, 24 h
[5] = qHTS assay to identify small molecule antagonists of the estrogen receptor alpha (ER-alpha) signaling pathway - cell viability counter screen (AID 743074; calls by dose curve; note: nearly all actives have a fitted effect of over 45% in size; note: potency is the fitted concentration of half-maximal effect)
[6] = qHTS assay to identify small molecule antagonists of the estrogen receptor alpha (ER-alpha) signaling pathway using the BG1 cell line - cell viability counter screen (AID 743081); conditions: BG1Luc4E2 viability, CellTiter-Fluor, 22 h;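 note: compound given together with 17beta-estradiol as the ER stimulus; nearly all actives have a fitted effect of over 45% in size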
Aromatase (Homo sapiens) = Aromatase (Homo sapiens) (UniProt P11511); assay: qHTS assay to identify aromatase inhibitors (AID 743083); note: nearly all actives have a fitted effect of over 55% in size; note: potency is the fitted concentration of half-maximal effect
[7] = qHTS assay to identify aromatase inhibitors - cell viability counter screen (AID 743084);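 note: cells stimulated with testosterone during compound exposure; nearly all actives have a fitted effect of over 55% in size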; note: potency is the fitted concentration of half-maximal effect
[8] = qHTS assay to identify small molecule that activate the aryl hydrocarbon receptor (AhR) signaling pathway - cell viability counter screen (AID 743086); note: nearly all actives have a fitted effect of over 45% in size; note: potency is the fitted concentration of half-maximal effect;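 for viability change, negative = cytotoxic: HepG2 liver cells carrying the AhR DRE luciferase reporter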
In short: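 HepG2-AhR-luc (HG2L7.5c1) cells, 4000/well, were preincubated 5 h at 37C, exposed to compound in qHTS format for 24 hr at 37C, then given CellTiter-Fluor for 30 min; viability was read as fluorescence in the reporter wells.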

[9] = qHTS assay to identify small molecule antagonists of the glucocorticoid receptor (GR) signaling pathway - cell viability counter screen (AID 720693); conditions: GR-bla HeLa viability, CellTiter-Glo luminescence, 18 h, with 5 nM dexamethasone present; note: nearly all actives have a fitted effect of over 55% in size
[10] = qHTS assay for identifying genotoxic compounds that show differential cytotoxicity against isogenic chicken DT40 cell lines with known DNA damage response pathways - wild type cell line (AID 743012); conditions: DT40 wild type chicken cells viability, CellTiter-Glo, 40 h; note: nearly all actives have a fitted effect of over 60% in size
In short: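 Cytotoxicity in repair-proficient parental chicken DT40 cells serves as the comparator for Rad54/Ku70- and Rev3-deficient lines. Cells were exposed to compounds for 40 h at 37 C/5% CO2, and ATP-based luminescence (CellTiter-Glo) measured viability.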

[11] = qHTS assay to identify small molecule antagonists of the androgen receptor (AR) signaling pathway using the MDA cell line - cell viability counter screen (AID 743041; note: nearly all actives have a fitted effect of over 45% in size); conditions: MDA-kb2 viability, CellTiter-Fluor, 16 h, cells co-treated with R1881 androgen agonist
In short: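 qHTS viability read-out; MDA-kb2 AR-luc; R1881-stimulated; 16 h exposure at 37C, 0% CO2; CellTiter-Fluor, 30 min; fluorescence intensity.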

[12] = qHTS assay to identify small molecule antagonists of the thyroid receptor (TR) signaling pathway - cell viability counter screen (AID 743064); conditions: GH3.TRE-Luc viability, CellTiter-Fluor, 24 h; note: nearly all actives have a fitted effect of over 50% in size
In short: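 Viability of T3-stimulated (1 nM final) GH3.TRE-Luc cells is measured by CellTiter-Fluor fluorescence after 23.5 h compound exposure at 37 °C plus 30 min reagent incubation.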

[13] = qHTS assay to identify small molecule antagonists of the thyroid receptor (TR) signaling pathway (AID 743065); note: nearly all actives have a fitted effect of over 55% in size; note: potency is the fitted concentration of half-maximal effect
In short: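 GH3.TRE-Luc rat pituitary cells carrying two TR response elements driving luciferase were plated for 4 h, given compound plus 1 nM T3 (final), and incubated 23.5 h at 37 C. ONE-Glo luminescence measured reporter inhibition; CellTiter-Fluor fluorescence tracked cytotoxicity.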

[14] = target: Estrogen receptor (Homo sapiens) (UniProt P03372); assay: qHTS assay to identify small molecule antagonists of the estrogen receptor alpha (ER-alpha) signaling pathway (AID 743069; active = well fitted curve in the direction sought with a large enough effect in the signal ratio in the repeat runs, not every such curve was filed as active; the % refers to the signal ratio); conditions: HEK293 ER-alpha-UAS-bla, beta-lactamase ratio, antagonist mode; at 79.1 µM (top of the series)
In short: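 Screening used a UAS-driven beta-lactamase reporter integrated into HEK293 cells expressing ER-alpha, stimulated with 17beta-estradiol alongside test compounds over 18 hr at 37C; signal came from LiveBLAzer B/G FRET fluorescence.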

[15] = target: Estrogen receptor (Homo sapiens) (UniProt P03372); assay: qHTS assay to identify small molecule agonists of the estrogen receptor alpha (ER-alpha) signaling pathway (AID 743075; calls by dose curve); conditions: HEK293 ER-alpha-UAS-bla, beta-lactamase FRET ratio, 18 h
[16] = target: Estrogen receptor (Homo sapiens) (UniProt P03372); assay: qHTS assay to identify small molecule agonists of the estrogen receptor alpha (ER-alpha) signaling pathway using the BG1 cell line (AID 743079); conditions: BG1Luc4E2 cells, ERE-luciferase agonist, 22 h; note: nearly all actives have a fitted effect of over 20% in size
[17] = qHTS assay to identify small molecule antagonists of the estrogen receptor alpha (ER-alpha) signaling pathway using the BG1 cell line (AID 743080; calls by dose curve;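 note: BG1 cells stimulated with 17beta-estradiol alongside compound; nearly all actives have a fitted effect of over 25% in size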); conditions: BG1Luc4E2 ERE-luciferase antagonist mode, luminescence
In short: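 Luminescence from a 4×ERE-luciferase reporter in BG1-Luc-4E2 cells served as read-out. Cells, pre-cultured 5 days in stripped-serum phenol-red-free medium, were exposed to compound with 17beta-estradiol co-stimulation for 21.5 h at 37 C.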

[18] = target: Peroxisome proliferator-activated receptor gamma (Homo sapiens) (UniProt P37231); assay: qHTS assay to identify small molecule agonists of the peroxisome proliferator-activated receptor gamma (PPARg) signaling pathway (AID 743094; active = well fitted activation curve with a large enough effect in the signal ratio in the repeat runs, not every such curve was filed as active; the % refers to the signal ratio); conditions: HEK293H PPARg-UAS-bla, beta-lactamase FRET ratio, 17 h
In short: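 Cells from the PPARg UAS-bla HEK293H line are plated and incubated 5 h at 37C. Compounds in DMSO are pinned in and left 17 h at 37C. LiveBLAzer B/G substrate is then added for 1 h at room temperature before fluorescence is measured.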

[19] = target: Aryl hydrocarbon receptor (Homo sapiens) (UniProt P35869); assay: qHTS assay to identify small molecule that activate the aryl hydrocarbon receptor (AhR) signaling pathway (AID 743085); conditions: HepG2 AhR-luc (HG2L7.5c1), luciferase, 24 h; at 70.3 µM (top of the series);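 note: HG2L7.5c1 human HepG2 liver cells with stably integrated DRE-driven firefly reporter; nearly all actives have a fitted effect of over 15% in size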
% is set by controls: 0 for no effect and ±100 for the full control effect.

O=[N+]([O-])c1ccccc1[N+](=O)[O-]
active: Potency [1] 34.4 µM | Potency [2] 70.3 µM and 61.1 µM
70.3 µM (active) and inactive: Potency (Aromatase (Homo sapiens))
62.7 µM (active) and inactive: Potency [8]
inactive: activity change, negative = cytotoxicity ([3]; at 58.5 µM (top of the series)) 3% | activity change, negative = cytotoxicity ([3]; at 78.9 µM (top of the series)) -21.3% | activation ([4]; at 83.9 µM (top of the series)) -1.43% | activation ([4]; at 95.2 µM (top of the series)) -7.89% | Potency [5] | activity change, negative = cytotoxicity ([6]; at 70.3 µM (top of the series)) -1.52% | activity change, negative = cytotoxicity ([6]; at 95 µM (top of the series)) -26.6% | Potency [7]

ClCCOP(OCCCl)OCCCl
inactive: viability change, negative = cytotoxic ([9]; at 58.5 µM (top of the series)) -0.135% | viability change, negative = cytotoxic ([9]; at 78.9 µM (top of the series)) -1.77% | activity change, negative = cytotoxicity ([10]; at 68.4 µM (top of the series)) 2.67% | activity change, negative = cytotoxicity ([10]; at 95 µM (top of the series)) -19.6% | Potency [1] | Potency [2] | activity change, negative = cytotoxicity ([3]; at 58.5 µM (top of the series)) 3.88% | activity change, negative = cytotoxicity ([3]; at 78.9 µM (top of the series)) -0.721% | viability change, negative = cytotoxic ([11]; at 70.3 µM (top of the series)) -5.98% | viability change, negative = cytotoxic ([11]; at 95 µM (top of the series)) -1.1% | activity change, negative = cytotoxic ([12]; at 70.3 µM (top of the series)) -9.86% | activity change, negative = cytotoxic ([12]; at 95 µM (top of the series)) -18.3% | Potency [13] | activation ([4]; at 83.9 µM (top of the series)) 7.56% | activation ([4]; at 95.2 µM (top of the series)) -0.811% | activity, negative = inhibition [14] -7.75% | activation ([15]; at 70.1 µM (top of the series)) -1.23% | activation ([15]; at 79.1 µM (top of the series)) -0.215% | activation ([16]; at 70.3 µM (top of the series)) 8.91% | activation ([16]; at 95 µM (top of the series)) -2.77% | activity change, negative = inhibition ([17]; at 70.3 µM (top of the series)) 3.58% | activity change, negative = inhibition ([17]; at 95 µM (top of the series)) 3.62% | activity change, negative = cytotoxicity ([6]; at 70.3 µM (top of the series)) 1.01% | activity change, negative = cytotoxicity ([6]; at 95 µM (top of the series)) -13.5% | Potency (Aromatase (Homo sapiens)) | Potency [7] | Potency [8] | activation ([18]; at 57 µM (top of the series)) 0.173% | activation ([18]; at 78.9 µM (top of the series)) -0.0589%
inactive and 21.9 µM (active): Potency [5]

CCOP(=O)(Cl)Cl
inactive: viability change, negative = cytotoxic ([9]; at 58.5 µM (top of the series)) -11% and -0.197% | activity change, negative = cytotoxicity ([10]; at 68.4 µM (top of the series)) -8.72% and 12% | Potency [1] | Potency [2] | activity change, negative = cytotoxicity ([3]; at 58.5 µM (top of the series)) 5.5% and 3.6% | viability change, negative = cytotoxic ([11]; at 70.3 µM (top of the series)) 2.44% and 13.7% | activity change, negative = cytotoxic ([12]; at 70.3 µM (top of the series)) 16.5% and 10.6% | Potency [13] | activation ([4]; at 83.9 µM (top of the series)) 0.858% and 0.39% | Potency [5] | activity change, negative = inhibition ([17]; at 70.3 µM (top of the series)) -7.22% and 4.98% | activity change, negative = cytotoxicity ([6]; at 70.3 µM (top of the series)) 2.57% and 0.94% | Potency (Aromatase (Homo sapiens)) | Potency [7] | activation [19] -0.998% and 2.15% | Potency [8] | activation ([18]; at 57 µM (top of the series)) 2.34% and -1.11%

CCOP(=S)(Cl)OCC
inactive: viability change, negative = cytotoxic ([9]; at 58.5 µM (top of the series)) -19.4% | viability change, negative = cytotoxic ([11]; at 70.3 µM (top of the series)) -2.68% | activation ([4]; at 83.9 µM (top of the series)) -1.72% | activity change, negative = cytotoxicity ([6]; at 70.3 µM (top of the series)) -2.25% | Potency [8]
active: Potency [1] 60.3 µM | Potency [2] 60.3 µM | Potency [13] 47.9 µM | Potency (Aromatase (Homo sapiens)) 67.6 µM | Potency [7] 60.3 µM
